Test results as given in paper PMC6917776, “Discovery of a chemical probe for PRDM9” (Nature Communications, 2019).

Target: T1, Biotinylated PRDM9 (amino acids 195–415) (Homo sapiens, UniProt Q9NQV7)
T1 construct: Biotinylated PRDM9 (amino acids 195–415)
T1 sequence (Q9NQV7 195-415): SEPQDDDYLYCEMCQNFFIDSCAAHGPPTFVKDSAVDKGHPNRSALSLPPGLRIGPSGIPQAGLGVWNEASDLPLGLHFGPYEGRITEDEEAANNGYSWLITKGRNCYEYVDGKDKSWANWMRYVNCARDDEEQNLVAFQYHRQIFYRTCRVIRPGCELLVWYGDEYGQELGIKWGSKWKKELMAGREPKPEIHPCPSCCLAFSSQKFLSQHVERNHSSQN
Experiment: Surface plasmon resonance (SPR) binding
Conditions: in the presence of 350 µM SAM
Protocol: Fig. 2 Orthogonal confirmation of MRK-740 binding to PRDM9. Binding affinity of MRK-740 was determined using SPR in the presence of 350 µM SAM (5xKm SAM, 70 ± 10 µM). a A representative sensorgram (solid green) is shown with the kinetic fit (black dots). […] Biotinylated PRDM9 (amino acids 195–415) was immobilized on the flow cell of a SA sensor chip in 1x HBS-EP buffer, yielding 5700 RU. Using the buffer with 0.5% DMSO, 350 µM SAM and single cycle kinetic with 60 s contact time and a dissociation time of 120 s at a flow rate of 75 µL/min. MRK-740 was tested at 1 µM as the highest concentration with dilution factor of 0.33 for five tested concentrations. c Binding and selectivity of MRK-740 against PRDM family members were tested by DSF as described in Methods. Only binding to PRDM9 and PRDM7 with ∆Tm of higher than 2 °C was observed. Mechanism of action of MRK-740 was also evaluated by determining the IC50 values (d) in the presence of fixed peptide (20 μM) and varying SAM concentrations as well as (e) fixed concentration of SAM (350 µM) and varying concentrations of peptide. […] All (c–e) experiments were performed in triplicate (n = 3) and data points are presented as average ± standard deviation. Source data are provided as a Source Data file.
Binding studies by SPR were performed using a Biacore T200 (GE Health Sciences Inc.) at 20 °C. […]

COc1cc(OC)cc(-c2noc(N3CCN(C)C4(CCN(c5ccnc(C)c5)CC4)C3)n2)c1 [MRK-740]
koff: 0.1 ± 0.01 s⁻¹
